## Antibody variant affinities, Ab-95 light chain, assay 2

The target is the same throughout: PDVDLGDISGINAS, from the HR2 region of SARS-CoV-2 spike.

Each scFv is VH, a (GGGGS)3 linker, VL, as in the parent Ab-95, and differs from it in the CDRs of the light chain only.
VH: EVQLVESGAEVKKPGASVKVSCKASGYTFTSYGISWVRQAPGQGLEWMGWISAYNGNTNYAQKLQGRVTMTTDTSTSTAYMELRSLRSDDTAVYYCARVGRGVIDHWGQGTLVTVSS
VL: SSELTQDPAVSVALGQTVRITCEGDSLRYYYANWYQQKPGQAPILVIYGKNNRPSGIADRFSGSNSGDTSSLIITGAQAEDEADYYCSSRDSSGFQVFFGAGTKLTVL

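The parent was found by panning a naive human phage display library on the peptide. Variants in AAYL52 differ from the parent at up to three CDR positions; double and triple changes were sampled at random. AlphaSeq pools MATa yeast showing the antibodies with MATalpha yeast showing the peptide. Binding brings cells together so that they mate, and sequencing counts the barcode pairs among the diploids. Each replicate has its own calibration line, from reference interactions of the BCL2 family. Each pool was mated in three replicate cultures.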

Positions count from residue 1 of the parent VL; S26W puts W in place of S.
All variants listed here change S26 of the VL, counted from its first residue.
The Kd shown is the geometric mean over detected replicates; a lower Kd is a better binder.
Where no diploid with the target was found in any replicate, the entry reads "nd": below detection, most likely a poor binder, though not proof of it.
Order: sorted from the lowest average up, undetected variants last.
Empty control strains, which show no peptide, gave a signal in 28% of pairings with library AAYL52; the median was 8.2 µM and 95% of these signals were weaker than 800 nM. No background was subtracted. Also given: how often the same scFv was detected with the empty control strains.

- S26W A32S S55D -> 15 nM (3 of 3 replicates; controls 2 of 9)
- D25E S26H S55V -> 110 nM (3 of 3 replicates; controls 5 of 9)
- S26N N33W N52F -> 180 nM (3 of 3 replicates; controls 4 of 9)
- S26Q Y29P K50E -> 300 nM (3 of 3 replicates; controls 3 of 9)
- S26P K50G -> 300 nM (3 of 3 replicates; controls 2 of 9)
- S26P P54A -> 340 nM (3 of 3 replicates; controls 2 of 9)
- S26N K50E -> 390 nM (3 of 3 replicates; controls 4 of 9)
- S26Q Y31T -> 400 nM (3 of 3 replicates; controls 2 of 9)
- S26A L27K S55V -> 410 nM (2 of 3 replicates; controls 2 of 9)
- S26E F98I -> 880 nM (3 of 3 replicates; controls 0 of 9)
- D25F S26P K50P -> 910 nM (2 of 3 replicates; controls 1 of 9)
- S26L S89G -> 1.1 µM (3 of 3 replicates; controls 4 of 9)
- S26Q N33H Q96N -> 1.7 µM (3 of 3 replicates; controls 4 of 9)
- E23G S26R K50W -> 2.2 µM (2 of 3 replicates; controls 7 of 9)
- G24M S26W R90D -> 2.2 µM (2 of 3 replicates; controls 2 of 9)
- S26Y K50E -> 3.0 µM (3 of 3 replicates; controls 5 of 9)
- S26T -> 3.3 µM (3 of 3 replicates; controls 2 of 9)
- S26E Y31V K50R -> 3.4 µM (3 of 3 replicates; controls 5 of 9)
- S26L Y30E R90K -> 4.2 µM (3 of 3 replicates; controls 3 of 9)
- S26R A32K G94M -> 5.0 µM (1 of 3 replicates; controls 1 of 9)
- S26W N51Y F95R -> 5.1 µM (3 of 3 replicates; controls 3 of 9)
- D25I S26A G49H -> 5.1 µM (2 of 3 replicates; controls 4 of 9)
- D25M S26V P54F -> 8.1 µM (1 of 3 replicates; controls 5 of 9)
- S26N Y29H Q96R -> 9.3 µM (3 of 3 replicates; controls 2 of 9)
- G24I S26W V97W -> 11 µM (2 of 3 replicates; controls 3 of 9)
- S26W Y29P F95V -> 12 µM (2 of 3 replicates; controls 3 of 9)
- S26V N51Y R53K -> 12 µM (2 of 3 replicates; controls 3 of 9)
- S26E Y31P G49S -> 14 µM (1 of 3 replicates; controls 4 of 9)
- S26D Y29M F98T -> 16 µM (2 of 3 replicates; controls 3 of 9)
- S26D N33Q G49K -> 19 µM (2 of 3 replicates; controls 3 of 9)
- S26T S55Y S88Q -> 27 µM (2 of 3 replicates; controls 2 of 9)
- D25N S26K G49V -> 35 µM (1 of 3 replicates; controls 0 of 9)
- S26Y S55P S89E -> 58 µM (1 of 3 replicates; controls 5 of 9)
- S26V G94Q F95Q -> 60 µM (1 of 3 replicates; controls 2 of 9)
- S26H L27M G94L -> nd (0 of 3 replicates; controls 3 of 9)
- S26I S55C V97A -> nd (0 of 3 replicates; controls 0 of 9)
- S26C A32N S89R -> nd (0 of 3 replicates; controls 1 of 9)
- S26K A32F V97S -> nd (0 of 3 replicates; controls 0 of 9)
- S26V R53K D91C -> nd (0 of 3 replicates; controls 0 of 9)
- G24K S26Y Q96P -> nd (0 of 3 replicates; controls 1 of 9)
- D25P S26R N51V -> nd (0 of 3 replicates; controls 1 of 9)
- S26L G49V N51S -> nd (0 of 3 replicates; controls 1 of 9)
- S26W S88T S93F -> nd (0 of 3 replicates; controls 1 of 9)

From the list, the first 4 with no signal in any replicate:

changes	apparent Kd	replicates with signal	signal with controls
S26H L27M G94L	nd	0/3	3/9
S26I S55C V97A	nd	0/3	0/9
S26C A32N S89R	nd	0/3	1/9
S26K A32F V97S	nd	0/3	0/9

Source: Engelhart et al. 2022 (doi:10.1038/s41597-022-01779-4), MIT Lincoln Laboratory and A-Alpha Bio; data file from the FLAb repository.